Measurements from ChEMBL document CHEMBL2046406 (J Med Chem, 2012).

Sequences of proteins named here, by UniProt entry; tags and fusion partners are left off.
UniProt P35372, whole entry: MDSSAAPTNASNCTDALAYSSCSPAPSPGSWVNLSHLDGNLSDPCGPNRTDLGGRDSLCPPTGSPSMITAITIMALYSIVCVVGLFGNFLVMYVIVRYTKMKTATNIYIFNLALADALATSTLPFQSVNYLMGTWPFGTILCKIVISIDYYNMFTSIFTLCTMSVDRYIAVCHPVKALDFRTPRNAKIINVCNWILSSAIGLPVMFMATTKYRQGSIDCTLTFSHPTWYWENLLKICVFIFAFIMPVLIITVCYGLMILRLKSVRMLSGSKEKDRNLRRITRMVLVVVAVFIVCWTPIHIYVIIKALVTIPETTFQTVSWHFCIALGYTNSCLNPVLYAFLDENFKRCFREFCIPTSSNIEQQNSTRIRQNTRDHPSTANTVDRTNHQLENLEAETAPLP

How the values were obtained:
Homo sapiens [1] = organism: Homo sapiens; experiment: Selectivity index, ratio of inhibition of human kappa opioid receptor to inhibition of human mu opioid receptor
Mu-type opioid receptor [2] = target: T1, Mu-type opioid receptor (Homo sapiens, UniProt P35372); experiment: Agonist activity at human mu opioid receptor expressed in CHO cells assessed as stimulation of […]GTPgammaS binding after 60 mins by scintillation counting relative to control; type: functional, cell-based
Method in brief: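 Membranes from CHO cells stably expressing human KOR (15 μg protein per tube) or MOR (7.5 μg protein per tube). Nonspecific binding with 10 μM GTPγS. Filtration, then scintillation counting. Triplicate, at least three experiments.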

Homo sapiens [3] = organism: Homo sapiens; experiment: Selectivity index, ratio of inhibition of human delta opioid receptor to inhibition of human mu opioid receptor
Mu-type opioid receptor [4] = target: T1, Mu-type opioid receptor; experiment: Antagonist activity at human mu opioid receptor expressed in CHO cells assessed as inhibition of DAMGO-induced […]GTPgammaS binding after 60 mins by scintillation counting relative to control; type: functional, cell-based

| Structure (SMILES) | Selectivity ratio (Homo sapiens [1]) | Emax (Mu-type opioid receptor [2]) [%] | Selectivity ratio (Homo sapiens [3]) | Imax (Mu-type opioid receptor [4]) |
| --- | --- | --- | --- | --- |
| CN1CC[C@]23CCCC[C@H]2[C@H]1Cc1ccc(NCc2cccc(O)c2)cc13 | 1700 | 85 | 24 | inactive |
| CN1CC[C@]23c4c5ccc(NCc6cccc(O)c6)c4O[C@H]2[C@@H](O)C=C[C@H]3[C@H]1C5 | > 1400 | 110 | 130 | inactive |

Active and inactive are the calls of the source. The calls are words filed in the database; no cut-off is given here.
